Experiment [1] in a line: Selectivity ratio of IC50 for inhibition of TDO (unknown origin) to IC50 for inhibition of recombinant human IDO1.
The nature of experiment [2]: Selectivity ratio of IC50 for inhibition of IDO2 (unknown origin) to IC50 for inhibition of recombinant human IDO1.

From ChEMBL document CHEMBL5385848, “Discovery of novel hydroxyamidine based indoleamine 2,3-dioxygenase 1 (IDO1) and thioredoxin reductase 1 (TrxR1) dual inhibitors” (Eur J Med Chem, 2023) come the findings set out here.

In the case of `O=C(Cc1ccc(O)cc1)Nc1nnc(CCCNc2nonc2/C(=N\O)Nc2ccc(F)c(Br)c2)s1`, the values for the Ratio IC50 in experiment [1] and in experiment [2] were 903 and 370, respectively.
